# Measured values reported in PubChem BioAssay AID1508624 (National Center for Advancing Translational Sciences (NCATS), 2021).
# The entries are a selection whose mix differs from that of the whole data set. Records with an inconclusive call do not appear. Activity calls are given as the source filed them. Calls follow the shape of the dose curve; as a rule, active = well fitted activation curve with a large enough effect; inconclusive = small, poorly fitted or top-dose-only effect, or another doubt; inactive = no such curve, though single readings can be large or run the other way.
# Assay: Primary qHTS for Identification of Small Molecule Activators of Huntingtin-Antisense Promoter Activity; also: nearly all actives have a fitted effect of over 55% in size
# Settings: HEK293 HTT-AS promoter firefly luciferase reporter, 24 h, percent change from vehicle, -100% = no light; at 57.5 µM (top of the series)
# Source text: Assay Provider: Russell L. Margolis M.D.
# Department Neurology, Johns Hopkins University School of Medicine, Baltimore, MD
# Huntington's Disease (HD) is a neurodegenerative disorder caused by a CAG repeat expansion in exon 1 of huntingtin (HTT). While there are currently no disease-modifying treatments for HD, recent efforts have focused on development of nucleotide-based therapeutics to lower HTT expression. As an alternative to siRNA or oligonucleotide methods, we hypothesized that suppression of HTT expression might be accomplished by small molecules that either (1) directly decrease HTT expression by suppressing HTT promoter activity or (2) indirectly decrease HTT expression by increasing the promoter activity of HTT-AS, the gene antisense to HTT that appears to inhibit expression of HTT.
# We developed and employed a high throughput screen for modifiers of HTT and HTT-AS promoter activity using luminescent reporter HEK293 cells; of the 52,041 compounds tested, we identified 898 replicable hits. We used a rigorous stepwise approach to assess compound toxicity and the capacity of the compounds to specifically lower huntingtin protein in 5 different cell lines, including HEK293 cells, HD lymphoblastoid cells, mouse primary neurons, HD iPSCs differentiated into cortical-like neurons, and HD hESCs. We found no compounds which were able to lower huntingtin without lowering cell viability in all assays, though the potential efficacy of a few compounds at non-toxic doses could not be excluded.
# SEQUENCE No. (1, 2, 3, etc.); […] (e.g., Cells, Incubation, Reagent, etc.); VALUE and DESCRIPTION.
# 1; Reagent; 4 uL; 2,500 Hek293 luciferase reporter cells per wells
# 3; Compound; 23 nL; Control inhibitor / compound library
# 5; Reagent; 2.5 uL; Firefly Luc reagent; Dual-Glo Luciferase Reporter Assay System (Promega)
# 6; Time; 10 min; room temperature incubation
# 7; Detection; Luminescence; FLuc
# NOTES (numbers refer to sequence above)
# 1; High-throughput screening, measuring luminescence from a Hek293 luciferase reporter, was performed in 1,536 well white-walled tissue-culture treated plates. 2,500 cells were plated in 4 µL of Opti-MEM per well using a Multidrop Combi Reagent Dispenser (ThermoFisher).
# 2; Assay plates were cultured for 24 hours.
# 3; Control inhibitor (PTC124; final concentration of 50 uM) and compound library (at final concentrations of 460 nM - 57.5 uM) were added to the assay plate using the Kalypsis Pintool Robotic System equipped with 1536 pinheads.
# 4; Cells were then incubated for 24 hours at 37 degrees C prior to luminescence measurements.
# 5; In all cases, luminescence was measured using the Dual-Glo Luciferase Reporter Assay System (Promega) following the manufacturer's instructions.
# 6; Room temperature incubation.
# 7; Luminescence signal was obtained using the PerkinElmer ViewLux plate reader. Results were normalized to vehicle control (0% activity) and zero RLU (-100% activity).
row,Compound,"activity change, positive = activation"
1,CN(C)C1(CNC(=O)c2ccc(C(C)(C)C)cc2)CCCCC1,inactive: -5.59%
2,Cc1ccccc1C(=O)NCC1(N(C)C)CCCCC1,inactive: -5.81%
3,CC(C)(C)c1ccc(C(=O)NCC2(N3CCOCC3)CCCCC2)cc1,inactive: -24.9%
4,COc1cc(C(=O)NCC2(N3CCOCC3)CCCCC2)cc(OC)c1OC,inactive: -8.95%
5,CCC(=O)N(c1ccccc1)C1CCNCC1,inactive: -9.89%
6,O=C(NCC1(N2CCOCC2)CCCCC1)c1ccccc1[N+](=O)[O-],inactive: -8.97%
7,O=C(NCC1(N2CCOCC2)CCCCC1)c1ccc([N+](=O)[O-])cc1,inactive: -8.24%
8,O=C(NCC1(N2CCOCC2)CCCCC1)c1ccccc1,inactive: -10.9%
9,CCOc1ccc(C(=O)NCC2(N3CCOCC3)CCCCC2)cc1,inactive: -11.3%
10,CCCOc1cccc(C(=O)NCC2(N3CCOCC3)CCCCC2)c1,inactive: -24.9%
11,CCCCOc1ccccc1C(=O)NCC1(N2CCOCC2)CCCCC1,inactive: -28.7%
12,O=C(NCC1(N2CCOCC2)CCCCC1)c1ccccc1Br,inactive: -15.2%
13,CCOC(=O)N1CCC(=O)CC1,inactive: -0.145%
14,COc1ccccc1C(=O)NCC1(N2CCOCC2)CCCCC1,inactive: -3.91%
15,O=C(NCC1(N2CCOCC2)CCCCC1)c1ccc(Cl)cc1,inactive: -9.26%
16,CCOC(=O)C(=O)CBr,inactive: -16.8%
